Assay results from paper PMC9098913, “In vitro reconstitution of Escherichia coli divisome activation” (Nature Communications, 2022).
Where “and” joins values, the source holds several entries; their conditions need not be identical. Equal entries are not always repeated.

Tests used:
[1] = molecular target: T1, FtsA R286W (E. coli), P0ABH0; assay: FRET or BRET; acceptor photobleaching on supported lipid bilayers with 0.25% Tris-NTA lipids pre-equilibrated with FtsN_(cyto), and 1.25 µM unlabelled FtsZ; 0.4 µM FtsA; settings: remark: other sources report otherwise
T1 chain: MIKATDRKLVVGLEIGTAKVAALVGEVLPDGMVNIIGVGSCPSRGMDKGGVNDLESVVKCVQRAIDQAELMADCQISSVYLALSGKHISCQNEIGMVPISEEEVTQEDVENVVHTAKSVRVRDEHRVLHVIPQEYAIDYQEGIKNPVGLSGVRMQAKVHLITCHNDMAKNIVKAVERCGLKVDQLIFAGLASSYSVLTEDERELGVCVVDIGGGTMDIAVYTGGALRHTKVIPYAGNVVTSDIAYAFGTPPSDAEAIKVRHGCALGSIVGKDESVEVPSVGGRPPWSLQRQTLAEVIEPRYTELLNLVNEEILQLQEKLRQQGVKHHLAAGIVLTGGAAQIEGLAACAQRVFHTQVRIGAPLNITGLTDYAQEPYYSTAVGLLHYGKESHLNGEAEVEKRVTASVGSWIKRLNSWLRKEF

[2] = molecular target: T1, FtsA R286W (E. coli), P0ABH0; assay: FRET or BRET; acceptor photobleaching on supported lipid bilayers; equimolar Cy3- and Cy5-FtsA with 20% unlabelled FtsA; FtsA alone, 0.4 µM; settings: remark: other sources report otherwise
[3] = Membrane off-binding rate (koff) of FtsA from FRAP; settings: in the presence of FtsZ
Source text: We could also use the data from these bleaching experiments to quantify the membrane-binding kinetics and diffusion of membrane-bound proteins by analysing the change of the fluorescence profile during recovery.
(§1) Equimolar concentrations of Cy3- and Cy5-labelled FtsA, supplemented with 20% unlabelled FtsA were used to study FRET and FRAP. Five pre-bleach frames were acquired, followed by acceptor photobleaching of a rectangular ROI with 40% 641 nm laser power and a dwell size of 1 µs/pixel, 75% overlapping lines. The recovery of the signal or the increase in donor intensity were measured with either two frames or one frame per second.
Bleaching the acceptor dye leads to an increase in the donor intensity, which can be used to quantify the Foerster Resonance energy transfer (FRET)[48]. FRET efficiency was quantified with E%=Ipost/Ipost+Ipre⋅100 , where Ipost is the intensity of the […] and Ipre is the […]. […] To extract the contribution of both processes, we adjusted a routine recently published by Gerganova et al.[33]. In short, the code provides the contribution of both modes of recovery by analysing the shape of the fluorescence recovery profile. […] Contribution of diffusion leads to a change of the slope of the outer borders of the bleached region (S4h right). […]

[4] = Single-molecule diffusion coefficient of FtsA on the membrane; settings: Fig. 3b
Experimental: (§2) First, we studied the behaviour of single FtsA proteins on the membrane surface.
(§3) After 5 min of incubation, single molecule time lapses were acquired every 125, 250, 500, and 1000 and 2000 ms, with an exposure time of 50 ms. Subsequently, the bulk concentration of FtsA was increased to 0.2/0.4/0.8 µM and time lapses were repeated as described above.
(§4) Single molecules of FtsA or FtsZ were tracked using the TrackMate plugin from ImageJ[43]. To obtain the residence time of FtsZ and FtsA, we performed a residence time analysis as described before[40],[47]. Shortly, single molecules were imaged at different acquisition rates (0.1–2 s) and the lifetime of the molecules was extracted from each data set. To account for photobleaching effect, the obtained lifetimes were plotted against the acquisition rate. […] Furthermore, we extracted the diffusion coefficient of FtsA single molecules at increasing concentrations. For this, we filtered the obtained data, by considering only trajectories which are present on the membrane for more than 0.4 s. […] Subsequently, the diffusion coefficient of FtsA molecules was estimated by fitting an MSD curve to each individual trajectory.

FtsA self-interaction = assay: FRET (acceptor photobleaching) self-interaction of FtsA on supported lipid bilayers; type: binding, E. coli
Source text: To directly measure FtsA self-interaction in our fluorescence microscopy experiments, we established a FRET (Förster resonance energy transfer)-based assay using FtsA labelled with either Cy5 (acceptor) or Cy3 (donor). […] We then decided to use this approach to measure the degree of FtsA self-interaction on supported lipid membranes by quantifying the increase in donor fluorescence after photobleaching the acceptor fluorophore[30]–[32] (Fig. 3c–e and Fig. S3d). […] As a negative control, we also attached the Hexahistidine-SUMO-tag (His-SUMO) labelled with Cy5 and Cy3 to membranes with an increasing density of Tris-NTA lipids.
as §1
Bleaching the acceptor dye leads to an increase in the donor intensity, which can be used to quantify the Foerster Resonance energy transfer (FRET)[48]. FRET efficiency was quantified with E%=Ipost/Ipost+Ipre⋅100 , where Ipost is the intensity of the […] and Ipre is the […]. […] To extract the contribution of both processes, we adjusted a routine recently published by Gerganova et al.[33]. In short, the code provides the contribution of both modes of recovery by analysing the shape of the fluorescence recovery profile. […] Contribution of diffusion leads to a change of the slope of the outer borders of the bleached region (S4h right). Thus, by measuring the change of the slope of the border recovery, diffusion and simple on/off binding can be distinguished. We developed “FRAPdiff”, a graphical user interface, which uses the original fit routine by David Rutkowski. It can be used directly on.tiff movies with annotated bleach regions as ImageJ ROIs. In addition, we added optional bleach correction, user selectable projection axis (x or y), and optional mirroring of the recovery profiles, if bleaching was not symmetric. The original fit routine for estimating the recovery and diffusion dynamics can be found at https://github.com/davidmrutkowski/1DReflectingDiffusion. FRAPdiff is available at 10.5281/zenodo.6400639[49] under the GPLv3 open-source license.

[5] = Single-molecule membrane residence time of FtsA; type: binding; settings: for mean residence time on the membrane: single-particle tracking, n = 3; for residence time, fold shorter than wild-type FtsA: 0.1–0.8 µM
Experimental: as §2, §3, §4

B1: FtsA R286W, P0ABH0 1-420 (natural protein)
chain: MIKATDRKLVVGLEIGTAKVAALVGEVLPDGMVNIIGVGSCPSRGMDKGGVNDLESVVKCVQRAIDQAELMADCQISSVYLALSGKHISCQNEIGMVPISEEEVTQEDVENVVHTAKSVRVRDEHRVLHVIPQEYAIDYQEGIKNPVGLSGVRMQAKVHLITCHNDMAKNIVKAVERCGLKVDQLIFAGLASSYSVLTEDERELGVCVVDIGGGTMDIAVYTGGALRHTKVIPYAGNVVTSDIAYAFGTPPSDAEAIKVRHGCALGSIVGKDESVEVPSVGGRPPWSLQRQTLAEVIEPRYTELLNLVNEEILQLQEKLRQQGVKHHLAAGIVLTGGAAQIEGLAACAQRVFHTQVRIGAPLNITGLTDYAQEPYYSTAVGLLHYGKESHLNGEAEVEKRVTASVGSWIKRLNSWLRKEF
modifications: here or on the partner: Cy3 or Cy5 at the N-terminus in the labelled form (labelled CLEPTGG peptide conjugated to the 5xGly tag by sortagging); unlabelled protein also used; Cy3 or Cy5 at the N-terminus in the labelled form (labelled CLEPTGG peptide conjugated to the 5xGly tag by sortagging); unlabelled protein also used
Molecule B1 has an FRET efficiency with FtsN (cyto) and FtsZ, 0.4 µM FtsA [1] of 28.1% and an FRET efficiency, 0.4 µM FtsA [2] of 8.1%.

B2: FtsA R286W (protein)
chain: MIKATDRKLVVGLEIGTAKVAALVGEVLPDGMVNIIGVGSCPSRGMDKGGVNDLESVVKCVQRAIDQAELMADCQISSVYLALSGKHISCQNEIGMVPISEEEVTQEDVENVVHTAKSVRVRDEHRVLHVIPQEYAIDYQEGIKNPVGLSGVRMQAKVHLITCHNDMAKNIVKAVERCGLKVDQLIFAGLASSYSVLTEDERELGVCVVDIGGGTMDIAVYTGGALRHTKVIPYAGNVVTSDIAYAFGTPPSDAEAIKVRHGCALGSIVGKDESVEVPSVGGRPPWSLQRQTLAEVIEPRYTELLNLVNEEILQLQEKLRQQGVKHHLAAGIVLTGGAAQIEGLAACAQRVFHTQVRIGAPLNITGLTDYAQEPYYSTAVGLLHYGKESHLNGEAEVEKRVTASVGSWIKRLNSWLRKEF
modifications: Cy3 or Cy5 at the N-terminus in the labelled form (labelled CLEPTGG peptide conjugated to the 5xGly tag by sortagging); unlabelled protein also used; left off: TwinStrep-SUMO, N-terminal, cleaved | 5x
For B2, the “turnover relative to FtsZ monomers (times faster)” value [3] was 1–2 times, the “mobility relative to WT (more mobile)” value [4] was 10 x and the “FRET efficiency, mean” value (FtsA self-interaction; 0.1 µM FtsA + FtsN&Z) was 18.47% and 18.4733%. The “FRET efficiency, mean” value (FtsA self-interaction; 0.1 µM FtsA + FtsN) was 9.23% and 9.2350%, the “FRET efficiency, mean” value (FtsA self-interaction; 0.1 µM FtsA + FtsZ) was 2.25% and 2.2550% and the “FRET efficiency, mean” value (FtsA self-interaction; 0.1 µM FtsA alone) was 1.34% and 1.3448%. For the same molecule, the “FRET efficiency, mean” value (FtsA self-interaction; 0.2 µM FtsA + FtsN&Z) was 22.39% and 22.3933%, the “FRET efficiency, mean” value (FtsA self-interaction; 0.2 µM FtsA + FtsN) was 18.49% and 18.4880% and the “FRET efficiency, mean” value (FtsA self-interaction; 0.2 µM FtsA + FtsZ) was 7.1591%. The “FRET efficiency, mean” value (FtsA self-interaction; 0.2 µM FtsA alone) was 4.11% and 4.1052%, the “FRET efficiency, mean” value (FtsA self-interaction; 0.4 µM FtsA + FtsN&Z) was 28.0125% and 28.01% and the “FRET efficiency, mean” value (FtsA self-interaction; 0.4 µM FtsA + FtsN) was 21.2650% and 21.26%. For the same molecule, the “FRET efficiency, mean” value (FtsA self-interaction; 0.4 µM FtsA + FtsZ) was 18.1945%, the “FRET efficiency, mean” value (FtsA self-interaction; 0.4 µM FtsA alone) was 8.0898% and 7.89% and the FRET efficiency (FtsA self-interaction; 0.4 µM FtsA with FtsNcyto and FtsZ, p-value 0.64) was 28.1 ± 4.6%. The FRET efficiency (FtsA self-interaction; 0.4 µM FtsA, p-value 6.12 × 10^−9) was 8.1 ± 2.8%, the “FRET efficiency, mean” value (FtsA self-interaction; 0.8 µM FtsA + FtsN&Z) was 30.6167% and 30.62% and the “FRET efficiency, mean” value (FtsA self-interaction; 0.8 µM FtsA + FtsN) was 21.2075% and 21.21%. For the same molecule, the “FRET efficiency, mean” value (FtsA self-interaction; 0.8 µM FtsA + FtsZ) was 23.7840%, the “FRET efficiency, mean” value (FtsA self-interaction; 0.8 µM FtsA alone) was 13.3594% and 13.36% and the FRET efficiency (FtsA self-interaction; Fig. S3f, 0.2µM FtsA + N/Z, replicate 1) was 12.4%. For the same molecule, the FRET efficiency (FtsA self-interaction; Fig. S3f, 0.2µM FtsA + N/Z, replicate 2) was 18.24%, the FRET efficiency (FtsA self-interaction; Fig. S3f, 0.2µM FtsA + N/Z, replicate 3) was 25.5% and the FRET efficiency (FtsA self-interaction; Fig. S3f, 0.2µM FtsA + N, replicate 1) was 9.44%. It also gave an FRET efficiency (FtsA self-interaction; Fig. S3f, 0.2µM FtsA + N, replicate 2) of 17.49%, an FRET efficiency (FtsA self-interaction; Fig. S3f, 0.2µM FtsA + N, replicate 3) of 21.95% and an FRET efficiency (FtsA self-interaction; Fig. S3f, 0.2µM FtsA + Z, replicate 1) of 8.5%. The FRET efficiency (FtsA self-interaction; Fig. S3f, 0.2µM FtsA + Z, replicate 2) was 3.89%, the FRET efficiency (FtsA self-interaction; Fig. S3f, 0.2µM FtsA + Z, replicate 3) was 5.5% and the FRET efficiency (FtsA self-interaction; Fig. S3f, 0.2µM FtsA, replicate 1) was 1.26%. The FRET efficiency (FtsA self-interaction; Fig. S3f, 0.2µM FtsA, replicate 2) was 2.19%, the FRET efficiency (FtsA self-interaction; Fig. S3f, 0.2µM FtsA, replicate 3) was 0.76% and the FRET efficiency (FtsA self-interaction; Fig. S3f, 0.4µM FtsA + N/Z, replicate 1) was 35.49%. It also gave an FRET efficiency (FtsA self-interaction; Fig. S3f, 0.4µM FtsA + N/Z, replicate 2) of 19.13%, an FRET efficiency (FtsA self-interaction; Fig. S3f, 0.4µM FtsA + N/Z, replicate 3) of 25.1% and an FRET efficiency (FtsA self-interaction; Fig. S3f, 0.4µM FtsA + N, replicate 1) of 32.24%. It also gave an FRET efficiency (FtsA self-interaction; Fig. S3f, 0.4µM FtsA + N, replicate 2) of 15.7%, an FRET efficiency (FtsA self-interaction; Fig. S3f, 0.4µM FtsA + N, replicate 3) of 10.51% and an FRET efficiency (FtsA self-interaction; Fig. S3f, 0.4µM FtsA + Z, replicate 1) of 5.5%. For the same molecule, the FRET efficiency (FtsA self-interaction; Fig. S3f, 0.4µM FtsA + Z, replicate 2) was 5.74%, the FRET efficiency (FtsA self-interaction; Fig. S3f, 0.4µM FtsA + Z, replicate 3) was 26.68% and the FRET efficiency (FtsA self-interaction; Fig. S3f, 0.4µM FtsA, replicate 1) was 10.64%. For the same molecule, the FRET efficiency (FtsA self-interaction; Fig. S3f, 0.4µM FtsA, replicate 2) was 6.33%, the FRET efficiency (FtsA self-interaction; Fig. S3f, 0.4µM FtsA, replicate 3) was 6.92% and the “FRET efficiency increase with FtsNcyto and FtsZ” value (FtsA self-interaction; both binding partners present) was “increased three-fold”. The “mean residence time on the membrane” value ([5]; 0.1 µM FtsA) was 2.6 ± 0.5 s, the “mean residence time on the membrane” value ([5]; 0.8 µM FtsA) was 14.1 ± 2.3 s and the “residence time, fold shorter than wild-type FtsA” value [5] was 2–7 fold. The “residence time, fold shorter than wild-type FtsA” value ([5]; listed as R286W) was 2-7 fold.
